Laboratory results published in PMC5785997, “2-Phenylquinazolinones as dual-activity tankyrase-kinase inhibitors” (Scientific Reports, 2018).

Chains of the proteins cited; added tags and fusions are not shown.
UniProt Q16539, whole entry: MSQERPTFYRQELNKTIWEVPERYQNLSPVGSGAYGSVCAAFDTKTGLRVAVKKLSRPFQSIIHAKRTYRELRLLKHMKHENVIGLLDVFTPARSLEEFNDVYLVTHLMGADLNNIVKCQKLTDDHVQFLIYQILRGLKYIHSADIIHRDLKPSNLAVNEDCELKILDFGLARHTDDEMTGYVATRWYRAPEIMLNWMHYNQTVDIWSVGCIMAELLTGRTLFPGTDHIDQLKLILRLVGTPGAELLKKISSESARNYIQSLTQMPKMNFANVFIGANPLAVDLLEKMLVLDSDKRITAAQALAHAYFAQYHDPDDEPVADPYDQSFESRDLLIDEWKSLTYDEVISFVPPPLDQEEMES
UniProt P28482, whole entry: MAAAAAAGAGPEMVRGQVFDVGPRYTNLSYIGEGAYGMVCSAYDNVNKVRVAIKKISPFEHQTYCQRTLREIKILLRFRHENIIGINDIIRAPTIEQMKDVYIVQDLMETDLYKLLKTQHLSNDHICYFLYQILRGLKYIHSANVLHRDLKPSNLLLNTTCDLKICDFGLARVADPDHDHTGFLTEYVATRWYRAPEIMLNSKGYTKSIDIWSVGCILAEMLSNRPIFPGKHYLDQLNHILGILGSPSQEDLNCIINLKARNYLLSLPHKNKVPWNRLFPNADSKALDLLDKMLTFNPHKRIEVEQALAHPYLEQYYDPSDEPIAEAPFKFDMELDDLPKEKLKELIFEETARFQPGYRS
UniProt P31749, whole entry, looked up: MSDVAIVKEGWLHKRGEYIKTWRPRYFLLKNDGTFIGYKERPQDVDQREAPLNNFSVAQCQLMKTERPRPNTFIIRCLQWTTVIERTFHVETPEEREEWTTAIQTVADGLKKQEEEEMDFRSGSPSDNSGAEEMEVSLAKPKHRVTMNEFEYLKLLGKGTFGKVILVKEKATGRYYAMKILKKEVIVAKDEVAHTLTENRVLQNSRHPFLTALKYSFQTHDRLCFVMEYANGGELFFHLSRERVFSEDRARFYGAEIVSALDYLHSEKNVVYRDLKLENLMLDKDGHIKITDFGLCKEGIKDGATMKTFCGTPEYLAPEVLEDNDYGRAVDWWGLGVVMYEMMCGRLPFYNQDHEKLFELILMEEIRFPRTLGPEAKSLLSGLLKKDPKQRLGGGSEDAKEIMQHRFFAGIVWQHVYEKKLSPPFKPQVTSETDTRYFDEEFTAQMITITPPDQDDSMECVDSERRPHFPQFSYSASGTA
UniProt P49841, whole entry: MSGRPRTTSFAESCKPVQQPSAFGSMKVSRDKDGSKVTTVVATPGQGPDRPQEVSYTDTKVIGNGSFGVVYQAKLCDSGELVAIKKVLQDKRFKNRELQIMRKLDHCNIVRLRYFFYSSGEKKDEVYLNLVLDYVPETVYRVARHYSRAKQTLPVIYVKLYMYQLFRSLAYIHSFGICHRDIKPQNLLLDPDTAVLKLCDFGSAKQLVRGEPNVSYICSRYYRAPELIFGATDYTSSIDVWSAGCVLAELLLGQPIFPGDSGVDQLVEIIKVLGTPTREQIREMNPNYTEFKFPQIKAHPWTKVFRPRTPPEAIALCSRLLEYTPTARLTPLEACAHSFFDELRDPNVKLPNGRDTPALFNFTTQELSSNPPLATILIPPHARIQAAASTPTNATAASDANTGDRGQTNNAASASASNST
UniProt P68400, whole entry: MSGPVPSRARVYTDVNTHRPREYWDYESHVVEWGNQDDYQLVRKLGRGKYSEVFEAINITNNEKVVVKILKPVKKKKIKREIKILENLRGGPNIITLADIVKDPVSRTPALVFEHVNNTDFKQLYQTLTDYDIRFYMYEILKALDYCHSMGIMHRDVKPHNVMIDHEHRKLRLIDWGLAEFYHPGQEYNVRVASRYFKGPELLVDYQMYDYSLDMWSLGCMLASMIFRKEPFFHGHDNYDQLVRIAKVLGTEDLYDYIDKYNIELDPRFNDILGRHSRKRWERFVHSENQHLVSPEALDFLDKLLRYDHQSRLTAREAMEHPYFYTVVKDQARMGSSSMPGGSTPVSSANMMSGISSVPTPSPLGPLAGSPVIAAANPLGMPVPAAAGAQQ
UniProt P50750, whole entry: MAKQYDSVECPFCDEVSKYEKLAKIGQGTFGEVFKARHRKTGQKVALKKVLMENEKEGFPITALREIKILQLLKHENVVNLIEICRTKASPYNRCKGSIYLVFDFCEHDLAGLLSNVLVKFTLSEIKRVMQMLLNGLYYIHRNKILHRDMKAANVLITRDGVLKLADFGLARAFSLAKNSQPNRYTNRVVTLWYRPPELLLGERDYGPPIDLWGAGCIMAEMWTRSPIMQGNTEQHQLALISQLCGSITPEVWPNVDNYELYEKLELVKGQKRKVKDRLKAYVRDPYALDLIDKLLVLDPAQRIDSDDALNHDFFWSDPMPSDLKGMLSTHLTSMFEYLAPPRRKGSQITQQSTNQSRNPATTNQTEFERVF
UniProt O60563, whole entry partner: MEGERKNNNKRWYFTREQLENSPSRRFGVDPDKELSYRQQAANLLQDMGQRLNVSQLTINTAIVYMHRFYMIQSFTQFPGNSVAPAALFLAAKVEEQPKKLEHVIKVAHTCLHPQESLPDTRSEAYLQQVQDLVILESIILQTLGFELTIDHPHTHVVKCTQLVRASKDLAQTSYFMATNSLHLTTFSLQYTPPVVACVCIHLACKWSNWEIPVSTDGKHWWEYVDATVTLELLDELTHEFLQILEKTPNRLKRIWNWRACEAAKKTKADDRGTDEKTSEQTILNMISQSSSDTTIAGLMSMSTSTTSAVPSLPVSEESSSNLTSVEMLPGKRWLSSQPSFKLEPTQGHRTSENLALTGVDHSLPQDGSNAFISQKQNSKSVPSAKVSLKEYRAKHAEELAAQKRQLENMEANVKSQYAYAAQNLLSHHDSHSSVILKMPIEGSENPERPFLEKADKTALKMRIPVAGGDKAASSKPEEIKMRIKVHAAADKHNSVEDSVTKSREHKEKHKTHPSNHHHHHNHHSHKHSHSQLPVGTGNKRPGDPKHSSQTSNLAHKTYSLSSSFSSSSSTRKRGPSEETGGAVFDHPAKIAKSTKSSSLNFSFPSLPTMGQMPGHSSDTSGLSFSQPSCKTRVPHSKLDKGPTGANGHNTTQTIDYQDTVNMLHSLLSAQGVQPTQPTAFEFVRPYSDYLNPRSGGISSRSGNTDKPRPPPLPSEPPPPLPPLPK

Assays:
Details in all cases: 10 µM compound, Table 1
p38α = p38α (Homo sapiens, UniProt Q16539); assay: Kinase functional assay (mobility shift), p38α; type: biochemical
ERK2 = ERK2 (Homo sapiens, UniProt P28482); assay: Kinase functional assay (mobility shift), ERK2 (p42); type: biochemical
Akt = Akt (UniProt P31749); assay: Kinase functional assay (mobility shift), Akt; type: biochemical
GSK3β = GSK3β (Homo sapiens, UniProt P49841); assay: Kinase functional assay (mobility shift), GSK3β; type: biochemical
human CK2α-1 = human CK2α-1 (Homo sapiens, UniProt P68400); assay: ADP-Glo kinase assay, CK2
CDK9 = CDK9 (Homo sapiens, UniProt P50750); assay: Kinase functional assay (mobility shift), CDK9; type: biochemical

| CDK9 inhibition-% (CDK9) [%] | SMILES | p38 inhibition-% (p38α) [%] | p42 inhibition-% (ERK2) [%] | Akt inhibition-% (Akt) [%] | GSK3β inhibition-% (GSK3β) [%] | CK2 inhibition-% (human CK2α-1) [%] |
| --- | --- | --- | --- | --- | --- | --- |
|  | Oc1nc(-c2ccc(C(F)(F)F)cc2)nc2c1CSCC2 [Compound 1, XAV939] | 3 | 2 | 7 | 7 | 1 |
| 9 | CS(=O)(=O)c1ccc(-c2nnc(/C=C/c3nnc(-c4ccc(C#N)cc4)o3)n2-c2ccccc2Cl)nc1 [Compound G007-LK, G007-LK] | 3 | 3 | 1 | 3 | 1 |
